Laboratory results: patent US5936105A, “14-EPI-19-nor-vitamin D compounds and methods” (Tetrionics, Inc., priority 1998, dated 1999)

Assays:
[1] = test system: HL-60 cells; assay: Differentiation of HL-60 cells (NBT reduction assay); type: cell-based; conditions: Homo sapiens, read-out: EC50 (concentration to induce differentiation in 50% of the cells; text: IC50)
[2] = test system: HL-60 cells; assay: Inhibition of HL-60 cell proliferation (thymidine incorporation assay); type: cell-based; conditions: Homo sapiens, read-out: EC50 (50% reduction in thymidine incorporation; text: IC50)

**Q.** What does the source list for `C=C1/C(=C\C=C2/CCC[C@]3(C)[C@@H]([C@H](C)CCCC(C)(C)O)CC[C@@H]23)C[C@@H](O)C[C@@H]1O` [1,25(OH)2 D3, 1α,25-dihydroxyvitamin D3]?
**A.** EC50 [1]: 0.5 nM; EC50 [2]: 30 nM
